Bioassay records as filed in PubChem.
Only a selection was taken, and hits are over-represented in it overall.
HCMV UL50-53 inh: inhibitors of HCMV UL50-UL53 nuclear egress complex interaction; HTRF UL50-UL53 interaction, normalized percent inhibition; inhibition, % (test concentration not listed); actives 0.15% (n = 190,000); AID 1918969; in the data active = inhibition above about 27%, passing the limit was not always enough
GIV Gai3 FP: inhibitors of GIV GBA-motif binding to rat Galpha-i3; P08753; Galpha-i3/FITC-GIV peptide fluorescence polarization, 90 min; hits give low values; scaled: aluminum fluoride 0%, vehicle 100%; percent of control (FP), % (no concentration beside the values); hit rate 0.42% among 210,000; AID 1224905;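 active = replicate mean at 85% of control or lower, very high polarization wells dropped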;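 note: wells of about 15 µL received 100 nL stock; the first replicate is given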
GIV-Gai FP conf: confirmation of inhibitors of GIV binding to rat Galpha-i3. FITC-GIV peptide binding to Galphai3, fluorescence polarization; hits give low values. shares compounds with GIV Gai3 FP. actives 38% (n = 580). fluorescence polarization, mP at 100 µM;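 active = inhibition score of 15 or more, meaning 100 minus mean polarization as percent of control over three replicates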;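 note: lower mP means peptide displaced from Galphai3 so more inhibition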
GIV Gai AS conf: GIV-Galpha-i3 inhibition, AlphaScreen confirmation. shares compounds with GIV Gai3 FP. AlphaScreen Galphai3-GIV binding, purified proteins, 90 min; hits give low values. AlphaScreen counts at 100 µM. actives 39% (n = 580). AID 1259351;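 active = inhibition score at or above a set limit, where the score is 100 minus the three-replicate mean percent of control signal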
Numbers stand for hits; . = inactive; / = no result.

SMILES | HCMV UL50-53 inh | GIV Gai3 FP | GIV-Gai FP conf | GIV Gai AS conf
Cc1ccc(/C=C2/SC(=O)NC2=S)o1 | / | 80 | 57 | 2262
COCCNC(=O)Cn1cc2c(n1)-c1c(oc(C(=O)N3CCCC3)c1C)CC2 | / | 70 | 66 | .
Cc1cccc(CNC(=O)c2oc3c(c2C)-c2nn(Cc4cccc(Cl)c4)cc2CC3)c1 | . | . | / | /
CCOCCCNC(=O)Cn1cc2c(n1)-c1c(oc(C(=O)N3CCCC3)c1C)CC2 | / | . | / | /
CCn1cc2c(n1)-c1c(oc(C(=O)NCc3cccnc3)c1C)CC2 | / | 83 | . | 10636
CCn1cc2c(n1)-c1c(oc(C(=O)Nc3ccc(Cl)cc3)c1C)CC2 | / | 81 | . | 16212
CC(=O)Nc1ccc(NC(=O)c2oc3c(c2C)-c2nn(Cc4ccccc4Cl)cc2CC3)cc1 | . | . | / | /
O=Cc1ccc(OC2OC(CO)C(O)C(O)C2O)cc1 (configuration not stated) | / | . | / | /
Cc1sc2nc(SCc3ccccc3)n(C)c(=O)c2c1C | . | . | / | /
COC(=O)C(NC(=O)C(Cc1c[nH]c2ccccc12)NC(=O)OC(C)(C)C)C(C)C (configuration not stated) | . | . | / | /
O=C(CC12CC3CC(CC(C3)C1)C2)NO | . | / | / | /
O=C1Oc2ccccc2C2c3sc(=O)[nH]c3SC(c3cccs3)C12 (configuration not stated) | . | . | / | /
S=c1nc(-c2ccccc2)[nH][nH]1 | . | . | / | /
CN1CCN(c2ccc(-c3ccc(NS(=O)(=O)c4ccc5c(c4)OCCO5)cc3)nn2)CC1 | . | . | / | /
Oc1ccc2ccccc2c1C=NCc1cn2ccsc2n1 | . | / | / | /
Oc1ccc2ccccc2c1C=NCc1cccnc1 | . | 5.4 | 24 | 5898
CCOC(=O)c1sc2nc[nH]c(=O)c2c1C | / | . | / | /
CCOC(=O)c1cccc(NC(=O)c2sc3nc[nH]c(=O)c3c2C)c1 | / | . | . | .
CCN(CC)S(=O)(=O)c1ccc(N=Nc2c(C)nn(-c3ccccc3)c2N)cc1 | . | / | / | /
C=CCSc1nnc2c(n1)[nH]c1ccccc12 | . | . | / | /
C=CCNc1nc2c([nH]c3ccccc32)s1 | / | . | 56 | 13174
COc1ccc(OCC(=O)N2CCN(c3ncnc4c3nnn4-c3ccc(Cl)cc3)CC2)cc1 | / | . | / | /
O=C(O)c1cnc(N2CCC(Cc3ccccc3)CC2)c(NS(=O)(=O)c2ccccc2)c1 | . | . | / | /
O=C(O)c1cnc(N2CCOCC2)c(NS(=O)(=O)c2ccccc2)c1 | . | 49 | 36 | .
C/C(N)=C(/C#N)C(=O)Cn1nnc2ccccc2c1=O | . | / | / | /
SMILES | HCMV UL50-53 inh | GIV Gai3 FP | GIV-Gai FP conf | GIV Gai AS conf
CC(=O)c1c2c3c(c(Br)ccc3n(C)c1=O)C(=O)c1ccccc1-2 | / | . | / | /
Cn1c(=O)c(C(=O)CS(=O)(=O)O)c2c3c(c(Br)ccc31)C(=O)c1ccccc1-2 | / | 84 | . | 5202
Cc1ccc(-c2csc(Cc3nc(-c4ccc(Cl)cc4)no3)n2)cc1 | / | . | / | /
N#Cc1ccc(COc2cccc[n+]2[O-])cc1 | . | / | / | /
O=S(=O)(c1ccccc1)N1CCCN(c2nc3cccnc3s2)CC1 | / | . | / | /
CC1(C)CC2(CCCN(C(=S)Nc3ccccc3)C2)CCO1 (configuration not stated) | / | . | . | .
CC1(C)CC2(CCCN(CCC(O)(c3ccccc3)c3ccccc3)C2)CCO1 (configuration not stated) | . | / | / | /
O=C(CCCCl)Nc1nc(-c2cccs2)cs1 | . | / | / | /
CC(C)(O)C#Cc1ccc(CO)cc1 | . | . | / | /
CCN(CC)c1ccc(N)c(C)c1 | . | 41 | . | 1482
CCN(CC)c1ccc(NC(C)=O)c(C)c1 | . | . | / | /
CC1CCCCN1CCNC(=O)c1ccc2c(Cl)c3c(nc2c1)CCCC3 (configuration not stated) | / | . | / | /
O=C(O)CC(C(=O)O)N1C(=O)/C(=C\c2ccco2)SC1=S (configuration not stated) | . | . | 53 | 3647
O=C(O)C(Cc1ccccc1)N1C(=O)/C(=C\c2ccco2)SC1=S (configuration not stated) | . | . | / | /
COCCN(CCC(=O)N1CCNCC1)C(=O)c1ccc(C)cc1 | . | . | / | /
CN1CCN(NC(=O)Cc2ccccc2Cl)CC1 | . | . | / | /
O=C(Cc1ccccc1Cl)NC1(O)C(=O)c2ccccc2C1=O | . | 70 | . | .
CCN1C(=O)/C(=C\c2ccc(OC)cc2)C(C(=O)OC)=C1C | . | / | / | /
CCOC(=O)C1=C(C)N(CCOC)C(=O)/C1=C\c1ccc(N(C)C)cc1 | . | 64 | . | 19702
O=c1/c(=C\c2cc3c(cc2[N+](=O)[O-])OCO3)sc2nc3cc(Br)cnc3n12 | / | . | / | /
COC(=O)c1ccsc1NC(=O)c1cccc(S(C)(=O)=O)c1 | . | . | / | /
COC(=O)c1ccsc1NC(=O)c1cccc(C)c1 | . | 65 | . | .
NC(=O)N/N=C/c1cccn1-c1ccc(C(F)(F)F)cc1 | . | . | / | /
O=C(O)C(c1ccccc1)N1C(=O)/C(=C/c2ccncc2)SC1=S (configuration not stated) | / | 80 | . | .
CC(C)C(C(=O)O)N1C(=O)/C(=C/c2ccccc2)SC1=S (configuration not stated) | . | / | / | /
SMILES | HCMV UL50-53 inh | GIV Gai3 FP | GIV-Gai FP conf | GIV Gai AS conf
CC1CC(C)CN(c2cnnc3c(Cl)cccc23)C1 (configuration not stated) | . | . | / | /
Clc1cccc2c(N3CCCCCC3)cnnc12 | . | 83 | . | .
CN(Cc1cccs1)C(=O)c1cc(Br)c(Br)s1 | . | / | / | /
COC(=O)C(C)NC(=O)N1CCOc2ccc(COCc3ccccc3F)cc2C1 (configuration not stated) | / | . | / | /
CC(C)c1cc(-c2nnc3sc(-c4ccncc4)nn23)n[nH]1 | . | 85 | . | 12549
COc1ccccc1-c1nn2c(-c3cc(C(C)C)[nH]n3)nnc2s1 | . | . | / | /
CC(=O)c1ccc(N2CCN(C(=O)c3ccc(Cn4c(=S)[nH]c5ccc(Br)cc5c4=O)cc3)CC2)cc1 | / | . | / | /
CCOC(=O)C1CCCN(C(=O)Cn2c(=O)c3ccccc3n3c(=S)sc(-c4ccccc4F)c23)C1 (configuration not stated) | . | . | / | /
CC1CCN(C(=O)Cn2c(=O)c3ccccc3n3c(=S)sc(-c4ccccc4F)c23)CC1 | . | 81 | . | .
FC(F)(F)c1ccc(-c2noc(-c3ccno3)n2)cc1 | . | . | / | /
Nc1ccc(O)c(C(=O)O)c1 | . | . | / | /
O=C(O)C1=CC(=C(c2ccc(O)c(C(=O)O)c2)c2ccc(O)c(C(=O)O)c2)C=CC1=O | 123 | -19 | 17 | 2586
CCOC(=O)c1ccccc1NC(=O)c1cc2c(s1)-c1ccsc1CC2 | . | . | / | /
O=C1CCCc2nc(N3CCN(c4ccccc4F)CC3)ncc21 | . | 82 | . | .
Fc1ccc(CN2CCc3nc(N4CCN(c5ccccc5F)CC4)ncc3C2)c(F)c1 | / | . | / | /
CCn1c(=O)c(C)nc2cc(C(=O)NCCc3c[nH]c4ccc(C)cc34)ccc21 | . | . | / | /
O=c1cc(Cn2nc3c(-c4nc(-c5ccccc5)no4)cccn3c2=O)nc2ccccn12 | / | . | 42 | .
CCOC(=O)Cn1nc2c(-c3nc(-c4ccc(Cl)cc4)no3)cccn2c1=O | / | . | / | /
CCCNc1ccc(-c2nc(-c3ccco3)no2)cc1[N+](=O)[O-] | . | . | / | /
